# In PMC9657098, “Synthesis, In Vitro Biological Evaluation and In Silico Molecular Docking Studies of Indole Based Thiadiazole Derivatives as Dual Inhibitor of Acetylcholinesterase and Butyrylchloinesterase” (Molecules, 2022):
# Chains of the proteins cited; added tags and fusions are not shown. Residues count along the entry.
# UniProt P22303, 32-614 limits assumed: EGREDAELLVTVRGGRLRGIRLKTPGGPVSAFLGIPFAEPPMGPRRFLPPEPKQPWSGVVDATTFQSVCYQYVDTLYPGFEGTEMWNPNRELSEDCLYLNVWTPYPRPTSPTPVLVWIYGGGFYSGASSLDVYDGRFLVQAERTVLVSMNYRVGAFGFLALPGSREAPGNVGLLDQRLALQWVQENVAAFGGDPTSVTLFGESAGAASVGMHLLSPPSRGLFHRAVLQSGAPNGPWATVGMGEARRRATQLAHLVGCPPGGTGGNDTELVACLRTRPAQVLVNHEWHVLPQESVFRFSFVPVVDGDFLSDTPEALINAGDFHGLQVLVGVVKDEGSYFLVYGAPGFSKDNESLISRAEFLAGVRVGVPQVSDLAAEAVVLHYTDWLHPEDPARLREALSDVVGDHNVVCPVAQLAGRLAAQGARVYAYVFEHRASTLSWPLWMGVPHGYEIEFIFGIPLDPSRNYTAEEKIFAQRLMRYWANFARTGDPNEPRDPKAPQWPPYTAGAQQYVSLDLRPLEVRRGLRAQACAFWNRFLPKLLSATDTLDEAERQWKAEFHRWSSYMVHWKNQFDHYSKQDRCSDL
# UniProt P06276, 29-602 limits assumed: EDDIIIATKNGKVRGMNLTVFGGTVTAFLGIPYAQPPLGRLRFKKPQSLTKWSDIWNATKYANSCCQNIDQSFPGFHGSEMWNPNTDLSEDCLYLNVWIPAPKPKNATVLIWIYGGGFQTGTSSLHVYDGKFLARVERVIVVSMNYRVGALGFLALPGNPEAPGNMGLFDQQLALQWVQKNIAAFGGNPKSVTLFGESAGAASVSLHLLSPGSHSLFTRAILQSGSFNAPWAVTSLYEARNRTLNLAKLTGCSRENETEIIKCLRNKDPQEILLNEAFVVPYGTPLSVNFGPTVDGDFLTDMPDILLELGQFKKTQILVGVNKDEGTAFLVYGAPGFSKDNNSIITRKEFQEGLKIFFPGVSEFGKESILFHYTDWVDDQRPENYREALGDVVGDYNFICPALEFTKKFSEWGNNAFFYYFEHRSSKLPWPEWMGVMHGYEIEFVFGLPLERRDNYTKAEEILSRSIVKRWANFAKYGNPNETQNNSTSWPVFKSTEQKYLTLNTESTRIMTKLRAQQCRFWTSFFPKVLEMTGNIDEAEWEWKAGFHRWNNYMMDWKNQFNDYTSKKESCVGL
# Assays:
# AChE = AChE (Homo sapiens, UniProt P22303); conditions: pH 8
# BuChE = BuChE (Homo sapiens, UniProt P06276); conditions: read-out: BuChE IC50 (µM ± SEM); in vitro enzyme inhibition
SMILES,IC50 (AChE),IC50 (BuChE)
O=[N+]([O-])c1ccc(Nc2nnc(Cc3cc4cc(Cl)ccc4[nH]3)s2)cc1Cl,2900 nM,4.6 µM
O=[N+]([O-])c1cc(Nc2nnc(Cc3cc4cc(Cl)ccc4[nH]3)s2)ccc1Cl,2100 nM,2.8 µM
